Measurements published in patent EP4834897A1, “COMPOUNDS WITH TWO AZAHETEROCYCLES SUBSTITUTED ISOINDOLINONE SKELETON AND USES THEREOF” (dated 2026).

Protein sequences, listed by entry. Tags and fused reporters are not part of them.
UniProt Q96SW2, whole entry: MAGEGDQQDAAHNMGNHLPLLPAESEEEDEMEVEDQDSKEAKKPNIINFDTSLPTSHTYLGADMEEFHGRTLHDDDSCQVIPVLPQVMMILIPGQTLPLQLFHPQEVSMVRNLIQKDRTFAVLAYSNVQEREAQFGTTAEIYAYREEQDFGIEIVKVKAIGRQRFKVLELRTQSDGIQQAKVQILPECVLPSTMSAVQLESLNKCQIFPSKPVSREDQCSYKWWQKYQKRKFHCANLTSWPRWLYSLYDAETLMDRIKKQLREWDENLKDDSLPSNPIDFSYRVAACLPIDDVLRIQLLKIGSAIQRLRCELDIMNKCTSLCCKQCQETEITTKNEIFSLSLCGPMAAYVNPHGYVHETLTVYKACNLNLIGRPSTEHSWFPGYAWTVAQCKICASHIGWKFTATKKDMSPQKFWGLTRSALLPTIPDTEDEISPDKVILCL
UniProt Q9UKS7, whole entry: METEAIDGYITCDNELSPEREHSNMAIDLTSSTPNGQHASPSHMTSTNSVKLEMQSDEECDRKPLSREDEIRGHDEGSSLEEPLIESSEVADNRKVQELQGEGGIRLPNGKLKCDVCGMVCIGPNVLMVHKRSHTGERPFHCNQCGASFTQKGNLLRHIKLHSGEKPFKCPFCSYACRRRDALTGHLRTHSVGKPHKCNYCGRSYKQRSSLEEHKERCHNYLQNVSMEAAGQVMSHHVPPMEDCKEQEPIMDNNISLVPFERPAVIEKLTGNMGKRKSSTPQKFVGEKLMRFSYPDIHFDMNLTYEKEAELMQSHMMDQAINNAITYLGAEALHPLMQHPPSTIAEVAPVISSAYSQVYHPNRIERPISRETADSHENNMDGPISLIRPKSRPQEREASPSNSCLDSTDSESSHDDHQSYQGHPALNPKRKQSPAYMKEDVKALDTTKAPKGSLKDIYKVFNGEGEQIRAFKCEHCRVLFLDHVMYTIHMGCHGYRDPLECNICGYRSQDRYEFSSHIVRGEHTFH
UniProt Q9UKT9, whole entry: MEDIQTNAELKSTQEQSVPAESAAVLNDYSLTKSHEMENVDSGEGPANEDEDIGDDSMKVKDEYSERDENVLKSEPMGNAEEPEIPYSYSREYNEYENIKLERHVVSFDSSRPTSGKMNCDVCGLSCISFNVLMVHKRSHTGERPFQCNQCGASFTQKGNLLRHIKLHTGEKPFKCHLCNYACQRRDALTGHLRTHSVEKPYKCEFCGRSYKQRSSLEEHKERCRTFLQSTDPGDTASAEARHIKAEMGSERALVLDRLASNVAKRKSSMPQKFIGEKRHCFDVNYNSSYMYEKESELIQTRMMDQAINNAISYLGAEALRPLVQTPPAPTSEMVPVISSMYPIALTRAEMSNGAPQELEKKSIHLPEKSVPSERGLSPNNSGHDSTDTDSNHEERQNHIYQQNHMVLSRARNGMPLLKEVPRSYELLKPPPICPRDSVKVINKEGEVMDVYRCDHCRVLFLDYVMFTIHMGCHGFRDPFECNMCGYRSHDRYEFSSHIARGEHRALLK
UniProt P48729, whole entry: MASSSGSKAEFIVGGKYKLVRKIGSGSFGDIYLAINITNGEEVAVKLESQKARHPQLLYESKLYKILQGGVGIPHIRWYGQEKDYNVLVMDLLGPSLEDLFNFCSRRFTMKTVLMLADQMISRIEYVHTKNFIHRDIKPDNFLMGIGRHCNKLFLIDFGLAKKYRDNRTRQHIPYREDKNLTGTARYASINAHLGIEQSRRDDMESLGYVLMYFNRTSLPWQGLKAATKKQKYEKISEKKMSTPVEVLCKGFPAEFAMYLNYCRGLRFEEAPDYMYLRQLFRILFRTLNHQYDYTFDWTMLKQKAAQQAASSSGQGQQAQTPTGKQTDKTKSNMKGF
UniProt P15170, whole entry: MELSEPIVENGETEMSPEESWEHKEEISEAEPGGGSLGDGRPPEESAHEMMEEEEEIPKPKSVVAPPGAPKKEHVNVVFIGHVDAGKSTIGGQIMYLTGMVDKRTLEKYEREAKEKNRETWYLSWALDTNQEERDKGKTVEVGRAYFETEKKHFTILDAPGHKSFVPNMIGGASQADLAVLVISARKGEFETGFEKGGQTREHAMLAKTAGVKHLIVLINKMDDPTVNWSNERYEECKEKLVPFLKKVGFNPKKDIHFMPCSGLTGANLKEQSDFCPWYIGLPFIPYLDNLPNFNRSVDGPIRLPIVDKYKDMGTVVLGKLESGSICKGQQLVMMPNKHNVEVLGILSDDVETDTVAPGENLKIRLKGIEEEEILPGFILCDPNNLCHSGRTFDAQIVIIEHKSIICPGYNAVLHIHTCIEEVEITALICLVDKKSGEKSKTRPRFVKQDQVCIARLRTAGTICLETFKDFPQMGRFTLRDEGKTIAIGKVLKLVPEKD
UniProt Q13422, whole entry: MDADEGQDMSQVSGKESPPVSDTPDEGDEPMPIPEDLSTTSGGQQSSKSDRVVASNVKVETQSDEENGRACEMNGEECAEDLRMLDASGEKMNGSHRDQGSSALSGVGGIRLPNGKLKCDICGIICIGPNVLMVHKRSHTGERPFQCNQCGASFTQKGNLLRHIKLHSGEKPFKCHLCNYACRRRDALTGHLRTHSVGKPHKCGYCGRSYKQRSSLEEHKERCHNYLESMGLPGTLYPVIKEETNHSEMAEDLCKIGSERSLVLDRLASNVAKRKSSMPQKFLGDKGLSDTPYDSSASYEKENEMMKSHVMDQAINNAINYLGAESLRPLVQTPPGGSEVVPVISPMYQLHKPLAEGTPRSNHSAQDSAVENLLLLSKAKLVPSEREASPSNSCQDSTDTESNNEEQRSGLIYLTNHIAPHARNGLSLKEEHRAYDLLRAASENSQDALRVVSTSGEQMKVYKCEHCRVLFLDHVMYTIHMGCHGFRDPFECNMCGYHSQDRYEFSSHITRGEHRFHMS
UniProt P30291, whole entry: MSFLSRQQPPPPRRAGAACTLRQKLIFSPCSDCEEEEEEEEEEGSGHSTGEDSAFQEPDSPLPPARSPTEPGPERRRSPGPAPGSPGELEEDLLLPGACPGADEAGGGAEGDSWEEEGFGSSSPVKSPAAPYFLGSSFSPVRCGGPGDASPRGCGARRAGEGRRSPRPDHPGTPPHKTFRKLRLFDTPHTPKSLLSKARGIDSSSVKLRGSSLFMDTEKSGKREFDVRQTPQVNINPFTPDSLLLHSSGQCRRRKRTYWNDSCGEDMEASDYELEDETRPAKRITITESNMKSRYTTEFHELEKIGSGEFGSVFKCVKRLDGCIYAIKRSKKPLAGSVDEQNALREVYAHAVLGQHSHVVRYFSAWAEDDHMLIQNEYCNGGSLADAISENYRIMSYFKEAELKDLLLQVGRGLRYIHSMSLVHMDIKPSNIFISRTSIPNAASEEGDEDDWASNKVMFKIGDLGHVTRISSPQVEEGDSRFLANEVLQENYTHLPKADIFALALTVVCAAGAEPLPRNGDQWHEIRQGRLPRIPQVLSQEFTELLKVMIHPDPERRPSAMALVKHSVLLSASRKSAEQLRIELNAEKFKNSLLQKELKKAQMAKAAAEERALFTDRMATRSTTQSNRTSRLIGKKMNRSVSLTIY
UniProt Q16531, whole entry partner: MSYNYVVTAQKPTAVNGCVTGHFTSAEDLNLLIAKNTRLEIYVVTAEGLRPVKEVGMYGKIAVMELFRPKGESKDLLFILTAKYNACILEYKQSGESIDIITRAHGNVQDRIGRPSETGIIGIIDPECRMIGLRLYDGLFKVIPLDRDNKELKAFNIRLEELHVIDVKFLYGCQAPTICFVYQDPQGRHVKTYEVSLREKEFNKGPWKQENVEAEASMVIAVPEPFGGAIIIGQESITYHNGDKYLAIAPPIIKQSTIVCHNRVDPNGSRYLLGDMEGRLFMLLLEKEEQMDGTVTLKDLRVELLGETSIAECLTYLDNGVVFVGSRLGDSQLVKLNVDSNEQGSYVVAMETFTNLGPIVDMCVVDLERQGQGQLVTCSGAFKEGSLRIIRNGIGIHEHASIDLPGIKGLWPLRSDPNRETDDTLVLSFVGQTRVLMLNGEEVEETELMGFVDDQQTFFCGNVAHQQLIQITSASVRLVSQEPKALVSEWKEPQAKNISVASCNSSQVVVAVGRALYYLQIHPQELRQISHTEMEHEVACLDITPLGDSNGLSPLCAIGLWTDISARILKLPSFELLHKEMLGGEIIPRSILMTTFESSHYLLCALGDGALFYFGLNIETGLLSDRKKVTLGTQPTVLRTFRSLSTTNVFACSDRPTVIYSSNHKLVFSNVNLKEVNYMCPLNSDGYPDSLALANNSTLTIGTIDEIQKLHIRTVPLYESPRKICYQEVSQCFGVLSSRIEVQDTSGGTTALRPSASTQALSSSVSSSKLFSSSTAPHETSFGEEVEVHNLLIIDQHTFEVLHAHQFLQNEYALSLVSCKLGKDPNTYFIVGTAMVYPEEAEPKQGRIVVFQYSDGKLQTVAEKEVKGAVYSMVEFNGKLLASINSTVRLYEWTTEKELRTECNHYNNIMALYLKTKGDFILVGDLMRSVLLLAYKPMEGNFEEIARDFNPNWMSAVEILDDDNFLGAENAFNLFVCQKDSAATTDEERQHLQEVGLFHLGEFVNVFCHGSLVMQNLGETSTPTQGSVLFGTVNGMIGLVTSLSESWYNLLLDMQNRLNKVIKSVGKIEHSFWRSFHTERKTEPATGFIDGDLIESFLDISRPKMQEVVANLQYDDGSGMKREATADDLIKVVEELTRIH

target: CRBN (Homo sapiens, UniProt Q96SW2); test: CRBN binding affinity by HTRF (CEREBLON BINDING kit); details: CRBN binding, HTRF, compound at 0.5 µM

SMILES | Inhibition Rate at 0.5 µM (%)
O=C1CCC(N2Cc3cc(C(=O)N4CCC(N5CCN(C(c6ccccc6)c6ccccc6)CC5)C(F)(F)C4)ccc3C2=O)C(=O)N1 (centres unmarked) | a3 (30% < a3 ≤ 40%)
CC1(C)CCC(C(=O)N2CCN(C3CCN(CCCc4ccc5c(c4)CN(C4CCC(=O)NC4=O)C5=O)CC3(F)F)CC2)=C(c2ccc(Cl)cc2)C1 (centres unmarked) | a6 (60% < a6 ≤ 70%)
O=C1CCC(N2Cc3cc(C(=O)N4CCC(N5CCN(c6noc7cc(F)ccc67)CC5)CC4)cc(F)c3C2=O)C(=O)N1 (centres unmarked) | a3 (30% < a3 ≤ 40%)
CC1(C)CCC(C(=O)N2CCN(C3CCN(Cc4cccc5c4CN(C4CCC(=O)NC4=O)C5=S)CC3(F)F)CC2)=C(c2ccc(Cl)cc2)C1 (centres unmarked) | a5 (53% < a5 ≤ 60%)

same assay, conditions: CRBN binding, HTRF, compound at 2 µM

SMILES | Inhibition Rate at 2 µM (%)
O=C1CCC(N2Cc3cc(C(=O)N4CCC(N5CCN(C(c6ccccc6)c6ccccc6)CC5)C(F)(F)C4)ccc3C2=O)C(=O)N1 (centres unmarked) | a6 (60% < a6 ≤ 70%)
CC1(C)CCC(C(=O)N2CCN(C3CCN(CCCc4ccc5c(c4)CN(C4CCC(=O)NC4=O)C5=O)CC3(F)F)CC2)=C(c2ccc(Cl)cc2)C1 (centres unmarked) | a8 (80% < a8 ≤100%)
O=C1CCC(N2Cc3cc(C(=O)N4CCC(N5CCN(c6noc7cc(F)ccc67)CC5)CC4)cc(F)c3C2=O)C(=O)N1 (centres unmarked) | a6 (60% < a6 ≤ 70%)
CC1(C)CCC(C(=O)N2CCN(C3CCN(Cc4cccc5c4CN(C4CCC(=O)NC4=O)C5=S)CC3(F)F)CC2)=C(c2ccc(Cl)cc2)C1 (centres unmarked) | a8 (80% < a8 ≤100%)

target: IKZF2 (Homo sapiens, UniProt Q96SW2+Q9UKS7); test: Western blot assay of substrate protein degradation in hPBMCs; details: 24 hours treatment, compounds at 50 nM and 500 nM (concentration behind the class not stated)

SMILES | substrate protein remaining % (IKZF2)
O=C1CCC(N2Cc3cc(C(=O)N4CCC(N5CCN(C(c6ccccc6)c6ccccc6)CC5)C(F)(F)C4)ccc3C2=O)C(=O)N1 (centres unmarked) | B (80%< substrate protein remaining %≤ 100%)
CC1(C)CCC(C(=O)N2CCN(C3CCN(CCCc4ccc5c(c4)CN(C4CCC(=O)NC4=O)C5=O)CC3(F)F)CC2)=C(c2ccc(Cl)cc2)C1 (centres unmarked) | A (0% ≤ substrate protein remaining % ≤ 80%)
O=C1CCC(N2Cc3cc(C(=O)N4CCC(N5CCN(c6noc7cc(F)ccc67)CC5)CC4)cc(F)c3C2=O)C(=O)N1 (centres unmarked) | B (80%< substrate protein remaining %≤ 100%)
CC1(C)CCC(C(=O)N2CCN(C3CCN(Cc4cccc5c4CN(C4CCC(=O)NC4=O)C5=S)CC3(F)F)CC2)=C(c2ccc(Cl)cc2)C1 (centres unmarked) | B (80%< substrate protein remaining %≤ 100%)

target: IKZF3 (Homo sapiens, UniProt Q96SW2+Q9UKT9); test: as above; details: 24 hours treatment, compounds at 50 nM and 500 nM (concentration behind the class not stated)

SMILES | substrate protein remaining % (IKZF3)
O=C1CCC(N2Cc3cc(C(=O)N4CCC(N5CCN(C(c6ccccc6)c6ccccc6)CC5)C(F)(F)C4)ccc3C2=O)C(=O)N1 (centres unmarked) | B (80%< substrate protein remaining %≤ 100%)
CC1(C)CCC(C(=O)N2CCN(C3CCN(CCCc4ccc5c(c4)CN(C4CCC(=O)NC4=O)C5=O)CC3(F)F)CC2)=C(c2ccc(Cl)cc2)C1 (centres unmarked) | A (0% ≤ substrate protein remaining % ≤ 80%)
O=C1CCC(N2Cc3cc(C(=O)N4CCC(N5CCN(c6noc7cc(F)ccc67)CC5)CC4)cc(F)c3C2=O)C(=O)N1 (centres unmarked) | B (80%< substrate protein remaining %≤ 100%)
CC1(C)CCC(C(=O)N2CCN(C3CCN(Cc4cccc5c4CN(C4CCC(=O)NC4=O)C5=S)CC3(F)F)CC2)=C(c2ccc(Cl)cc2)C1 (centres unmarked) | A (0% ≤ substrate protein remaining % ≤ 80%)

target: CK1α (Homo sapiens, UniProt P48729+Q96SW2); test: as above; details: 24 hours treatment, compounds at 50 nM and 500 nM (concentration behind the class not stated)

SMILES | substrate protein remaining % (CK1a)
O=C1CCC(N2Cc3cc(C(=O)N4CCC(N5CCN(C(c6ccccc6)c6ccccc6)CC5)C(F)(F)C4)ccc3C2=O)C(=O)N1 (centres unmarked) | B (80%< substrate protein remaining %≤ 100%)
CC1(C)CCC(C(=O)N2CCN(C3CCN(CCCc4ccc5c(c4)CN(C4CCC(=O)NC4=O)C5=O)CC3(F)F)CC2)=C(c2ccc(Cl)cc2)C1 (centres unmarked) | A (0% ≤ substrate protein remaining % ≤ 80%)
O=C1CCC(N2Cc3cc(C(=O)N4CCC(N5CCN(c6noc7cc(F)ccc67)CC5)CC4)cc(F)c3C2=O)C(=O)N1 (centres unmarked) | A (0% ≤ substrate protein remaining % ≤ 80%)
CC1(C)CCC(C(=O)N2CCN(C3CCN(Cc4cccc5c4CN(C4CCC(=O)NC4=O)C5=S)CC3(F)F)CC2)=C(c2ccc(Cl)cc2)C1 (centres unmarked) | B (80%< substrate protein remaining %≤ 100%)

target: GSPT1 (Homo sapiens, UniProt P15170+Q96SW2); test: as above; details: 24 hours treatment, compounds at 50 nM and 500 nM (concentration behind the class not stated)

SMILES | substrate protein remaining % (GSPT1)
O=C1CCC(N2Cc3cc(C(=O)N4CCC(N5CCN(C(c6ccccc6)c6ccccc6)CC5)C(F)(F)C4)ccc3C2=O)C(=O)N1 (centres unmarked) | A (0% ≤ substrate protein remaining % ≤ 80%)
CC1(C)CCC(C(=O)N2CCN(C3CCN(CCCc4ccc5c(c4)CN(C4CCC(=O)NC4=O)C5=O)CC3(F)F)CC2)=C(c2ccc(Cl)cc2)C1 (centres unmarked) | A (0% ≤ substrate protein remaining % ≤ 80%)
O=C1CCC(N2Cc3cc(C(=O)N4CCC(N5CCN(c6noc7cc(F)ccc67)CC5)CC4)cc(F)c3C2=O)C(=O)N1 (centres unmarked) | A (0% ≤ substrate protein remaining % ≤ 80%)
CC1(C)CCC(C(=O)N2CCN(C3CCN(Cc4cccc5c4CN(C4CCC(=O)NC4=O)C5=S)CC3(F)F)CC2)=C(c2ccc(Cl)cc2)C1 (centres unmarked) | A (0% ≤ substrate protein remaining % ≤ 80%)

target: IKZF1 (Homo sapiens, UniProt Q13422+Q96SW2); test: as above; details: 24 hours treatment, compounds at 50 nM and 500 nM (concentration behind the class not stated)

SMILES | substrate protein remaining % (IKZF 1)
O=C1CCC(N2Cc3cc(C(=O)N4CCC(N5CCN(C(c6ccccc6)c6ccccc6)CC5)C(F)(F)C4)ccc3C2=O)C(=O)N1 (centres unmarked) | A (0% ≤ substrate protein remaining % ≤ 80%)
CC1(C)CCC(C(=O)N2CCN(C3CCN(CCCc4ccc5c(c4)CN(C4CCC(=O)NC4=O)C5=O)CC3(F)F)CC2)=C(c2ccc(Cl)cc2)C1 (centres unmarked) | B (80%< substrate protein remaining %≤ 100%)
O=C1CCC(N2Cc3cc(C(=O)N4CCC(N5CCN(c6noc7cc(F)ccc67)CC5)CC4)cc(F)c3C2=O)C(=O)N1 (centres unmarked) | B (80%< substrate protein remaining %≤ 100%)
CC1(C)CCC(C(=O)N2CCN(C3CCN(Cc4cccc5c4CN(C4CCC(=O)NC4=O)C5=S)CC3(F)F)CC2)=C(c2ccc(Cl)cc2)C1 (centres unmarked) | B (80%< substrate protein remaining %≤ 100%)

target: WEE1 (Homo sapiens, UniProt P30291+Q96SW2); test: as above; details: 24 hours treatment, compounds at 50 nM and 500 nM (concentration behind the class not stated)

SMILES | substrate protein remaining % (WEE1)
O=C1CCC(N2Cc3cc(C(=O)N4CCC(N5CCN(C(c6ccccc6)c6ccccc6)CC5)C(F)(F)C4)ccc3C2=O)C(=O)N1 (centres unmarked) | A (0% ≤ substrate protein remaining % ≤ 80%)
CC1(C)CCC(C(=O)N2CCN(C3CCN(CCCc4ccc5c(c4)CN(C4CCC(=O)NC4=O)C5=O)CC3(F)F)CC2)=C(c2ccc(Cl)cc2)C1 (centres unmarked) | B (80%< substrate protein remaining %≤ 100%)
O=C1CCC(N2Cc3cc(C(=O)N4CCC(N5CCN(c6noc7cc(F)ccc67)CC5)CC4)cc(F)c3C2=O)C(=O)N1 (centres unmarked) | A (0% ≤ substrate protein remaining % ≤ 80%)
CC1(C)CCC(C(=O)N2CCN(C3CCN(Cc4cccc5c4CN(C4CCC(=O)NC4=O)C5=S)CC3(F)F)CC2)=C(c2ccc(Cl)cc2)C1 (centres unmarked) | B (80%< substrate protein remaining %≤ 100%)
